Measurements published in US9706755B2, “Controlled odor mimic permeation system” (dated 2017).

Experiments:
[1] = tested on: trained and certified explosives detection canines; test: Canine field trials, active odor determination (odor line-up of hide boxes)
[2] = tested on: explosives detection canines; test: Overall / individual canine performance (alerts plus interests over all hides; real explosives, odor chemicals, NESTT silica and petrolatum aids; Tables 69-72); details: for total number of alerts or interest / total number of hides: interest reported as alert; for overall canine population response to odor chemical (alert/interest): Table 70, all field tests pooled, canines 120, 140, 141 discounted; for Total, alerts or interest / hides / Total, alerts or interest as percent of hides: all canines 101-144; for Adjusted Total, alerts or interest / hides / Adjusted Total, alerts or interest as percent of hides: removing canines 120, 140 & 141
[3] = tested on: explosives detection canines; test: First field test of gauze mimic aids, COMPS kits (Table 94); details: 100 μl at 10% w/v Acetonitrile on Gauze in 2 mil LDPE, Electrical Box
[4] = Table 58, 0.5 μl in 2.0 mil LDPE
[5] = Table 60, 25 μl in 2.0 mil LDPE
[6] = Table 63, 5.0 mg ethyl centralite, tablets with total 10.0 mg trinitroglycerin
[7] = Dog Number 140 (4/6 false alerts, discounted from adjusted totals)
[8] = Dog Number 141 (4/6 false alerts, discounted from adjusted totals)
[9] = Table 52, 1.0 g sealed inside LDPE
[10] = Table 59, 10.0 μl in 2.0 mil LDPE

Compound: Cc1ccccc1[N+](=O)[O-]
- alerts (canines alerting / canines tested) ([1]; Table 54, 5.0 mg): 1/8
- interests (canines showing interest / canines tested) ([1]; Table 54, 5.0 mg): 2/8
- % Alert ([1]; Table 54, Quart Can, 50 μl at 10% w/v Acetonitrile on Cotton, 9 canines): 11.1%
- alerts (canines alerting / canines tested) [1, 4]: 2/10
- alerts (canines alerting / canines tested) [1, 5]: 0/12
- interests (canines showing interest / canines tested) [1, 5]: 1/12
- total number of alerts or interest / total number of hides ([2]; Dog Number 101): 1/1
- total number of alerts or interest / total number of hides ([2]; Dog Number 103): 1/1
- total number of alerts or interest / total number of hides ([2]; Dog Number 106): 0/1
- total number of alerts or interest / total number of hides ([2]; Dog Number 107): 0/1
- total number of alerts or interest / total number of hides ([2]; Dog Number 108): 1/2
- total number of alerts or interest / total number of hides ([2]; Dog Number 109): 1/4
- total number of alerts or interest / total number of hides ([2]; Dog Number 110): 0/1
- total number of alerts or interest / total number of hides ([2]; Dog Number 111): 0/1
- total number of alerts or interest / total number of hides ([2]; Dog Number 113): 1/3
- total number of alerts or interest / total number of hides ([2]; Dog Number 115): 0/1
- total number of alerts or interest / total number of hides ([2]; Dog Number 116): 1/2
- total number of alerts or interest / total number of hides ([2]; Dog Number 117): 0/1
- total number of alerts or interest / total number of hides ([2]; Dog Number 118): 0/2
- total number of alerts or interest / total number of hides ([2]; Dog Number 119): 1/3
- total number of alerts or interest / total number of hides ([2]; Dog Number 121): 0/1
- total number of alerts or interest / total number of hides ([2]; Dog Number 124): 0/1
- total number of alerts or interest / total number of hides ([2]; Dog Number 125): 0/1
- total number of alerts or interest / total number of hides ([2]; Dog Number 126): 0/2
- total number of alerts or interest / total number of hides ([2]; Dog Number 127): 0/1
- total number of alerts or interest / total number of hides ([2]; Dog Number 128): 0/1
- total number of alerts or interest / total number of hides ([2]; Dog Number 129): 0/1
- overall canine population response to odor chemical (alert/interest) [2]: 21.9%
- Total, alerts or interest / hides [2]: 7/32
- Total, alerts or interest as percent of hides [2]: 21.9%
- Adjusted Total, alerts or interest / hides [2]: 7/32
- Adjusted Total, alerts or interest as percent of hides [2]: 21.9%

Compound: Ethyl Centralite
- Interest (dog numbers) [3]: 142
- No Alert (dog numbers) [3]: 133 ,
- alerts (canines alerting / canines tested) [1, 6]: 2/12
- interests (canines showing interest / canines tested) [1, 6]: 1/12
- % Alert ([1]; Table 63, Electrical Box, 50 μl at 10% w/v Acetonitrile on Gauze in 2.0 mil LDPE, 12 canines): 16.7%
- alerts (canines alerting / canines tested) ([1]; Table 64, 10.0 mg): 0/6
- alerts (canines alerting / canines tested) ([1]; Table 64, 1.0 g): 0/6
- total number of alerts or interest / total number of hides ([2]; Dog Number 101): 0/1
- total number of alerts or interest / total number of hides ([2]; Dog Number 103): 0/1
- total number of alerts or interest / total number of hides ([2]; Dog Number 106): 0/1
- total number of alerts or interest / total number of hides ([2]; Dog Number 108): 1/3
- total number of alerts or interest / total number of hides ([2]; Dog Number 109): 0/5
- total number of alerts or interest / total number of hides ([2]; Dog Number 110): 0/2
- total number of alerts or interest / total number of hides ([2]; Dog Number 111): 0/1
- total number of alerts or interest / total number of hides ([2]; Dog Number 112): 1/2
- total number of alerts or interest / total number of hides ([2]; Dog Number 113): 0/1
- total number of alerts or interest / total number of hides ([2]; Dog Number 115): 0/1
- total number of alerts or interest / total number of hides ([2]; Dog Number 116): 0/1
- total number of alerts or interest / total number of hides ([2]; Dog Number 117): 1/2
- total number of alerts or interest / total number of hides ([2]; Dog Number 118): 0/3
- total number of alerts or interest / total number of hides ([2]; Dog Number 119): 0/2
- total number of alerts or interest / total number of hides ([2]; Dog Number 121): 0/1
- total number of alerts or interest / total number of hides ([2]; Dog Number 124): 0/1
- total number of alerts or interest / total number of hides ([2]; Dog Number 126): 0/3
- total number of alerts or interest / total number of hides ([2]; Dog Number 127): 0/3
- total number of alerts or interest / total number of hides ([2]; Dog Number 128): 0/1
- total number of alerts or interest / total number of hides ([2]; Dog Number 129): 0/1
- total number of alerts or interest / total number of hides ([2]; Dog Number 130): 0/1
- total number of alerts or interest / total number of hides ([2]; Dog Number 131): 0/1
- total number of alerts or interest / total number of hides ([2]; Dog Number 132): 0/1
- total number of alerts or interest / total number of hides ([2]; Dog Number 133): 0/1
- total number of alerts or interest / total number of hides [2, 7]: 1/1
- total number of alerts or interest / total number of hides [2, 8]: 1/1
- total number of alerts or interest / total number of hides ([2]; Dog Number 142): 1/1
- total number of alerts or interest / total number of hides ([2]; Dog Number 143): 1/1
- total number of alerts or interest / total number of hides ([2]; Dog Number 144): 1/1
- overall canine population response to odor chemical (alert/interest) [2]: 14.0%
- Total, alerts or interest / hides [2]: 8/45
- Total, alerts or interest as percent of hides [2]: 17.8%
- Adjusted Total, alerts or interest / hides [2]: 6/43
- Adjusted Total, alerts or interest as percent of hides [2]: 14.0%

Compound: 2-Nitrodiphenylamine
- Interest (dog numbers) [3]: 112
- response from the canines ([1]; two field tests, 5.0 mg and 10.0 mg): neither test resulted in any response
- total number of alerts or interest / total number of hides ([2]; Dog Number 101): 0/1
- total number of alerts or interest / total number of hides ([2]; Dog Number 106): 0/1
- total number of alerts or interest / total number of hides ([2]; Dog Number 108): 0/2
- total number of alerts or interest / total number of hides ([2]; Dog Number 109): 0/4
- total number of alerts or interest / total number of hides ([2]; Dog Number 110): 0/2
- total number of alerts or interest / total number of hides ([2]; Dog Number 112): 0/2
- total number of alerts or interest / total number of hides ([2]; Dog Number 113): 0/1
- total number of alerts or interest / total number of hides ([2]; Dog Number 115): 0/1
- total number of alerts or interest / total number of hides ([2]; Dog Number 117): 0/2
- total number of alerts or interest / total number of hides ([2]; Dog Number 118): 0/2
- total number of alerts or interest / total number of hides ([2]; Dog Number 119): 0/1
- total number of alerts or interest / total number of hides ([2]; Dog Number 126): 0/2
- total number of alerts or interest / total number of hides ([2]; Dog Number 127): 0/2
- total number of alerts or interest / total number of hides ([2]; Dog Number 128): 0/1
- total number of alerts or interest / total number of hides ([2]; Dog Number 129): 0/1
- total number of alerts or interest / total number of hides ([2]; Dog Number 130): 0/1
- total number of alerts or interest / total number of hides ([2]; Dog Number 131): 0/1
- total number of alerts or interest / total number of hides ([2]; Dog Number 132): 0/1
- total number of alerts or interest / total number of hides ([2]; Dog Number 133): 0/1
- total number of alerts or interest / total number of hides [2, 7]: 1/1
- total number of alerts or interest / total number of hides [2, 8]: 1/1
- total number of alerts or interest / total number of hides ([2]; Dog Number 142): 0/1
- total number of alerts or interest / total number of hides ([2]; Dog Number 143): 0/1
- total number of alerts or interest / total number of hides ([2]; Dog Number 144): 0/1
- overall canine population response to odor chemical (alert/interest) [2]: 0.0%
- Total, alerts or interest / hides [2]: 2/24
- Total, alerts or interest as percent of hides [2]: 8.33%
- Adjusted Total, alerts or interest / hides [2]: 0/20
- Adjusted Total, alerts or interest as percent of hides [2]: 0.0%

Compound: O=C1CCCCC1
- alerts (canines alerting / canines tested) [1, 9]: 2/6
- interests (canines showing interest / canines tested) [1, 9]: 2/6
- alerts (canines alerting / canines tested) [1, 4]: 0/10
- alerts (canines alerting / canines tested) [1, 10]: 0/10
- interests (canines showing interest / canines tested) [1, 10]: one canine did give an interest
- alerts (canines alerting / canines tested) [1, 5]: 1/12
- interests (canines showing interest / canines tested) [1, 5]: 2/12
- total number of alerts or interest / total number of hides ([2]; Dog Number 103): 0/1
- total number of alerts or interest / total number of hides ([2]; Dog Number 106): 2/2
- total number of alerts or interest / total number of hides ([2]; Dog Number 107): 0/1
- total number of alerts or interest / total number of hides ([2]; Dog Number 108): 0/2
- total number of alerts or interest / total number of hides ([2]; Dog Number 109): 0/3
- total number of alerts or interest / total number of hides ([2]; Dog Number 110): 0/1
- total number of alerts or interest / total number of hides ([2]; Dog Number 111): 0/1
- total number of alerts or interest / total number of hides ([2]; Dog Number 112): 1/3
- total number of alerts or interest / total number of hides ([2]; Dog Number 113): 1/3
- total number of alerts or interest / total number of hides ([2]; Dog Number 114): 0/1
- total number of alerts or interest / total number of hides ([2]; Dog Number 115): 2/3
- total number of alerts or interest / total number of hides ([2]; Dog Number 116): 2/4
- total number of alerts or interest / total number of hides ([2]; Dog Number 118): 0/1
- total number of alerts or interest / total number of hides ([2]; Dog Number 119): 1/3
- total number of alerts or interest / total number of hides ([2]; Dog Number 120 (20/28 false alerts, discounted from adjusted totals)): 1/1
- total number of alerts or interest / total number of hides ([2]; Dog Number 124): 0/1
- total number of alerts or interest / total number of hides ([2]; Dog Number 125): 0/1
- total number of alerts or interest / total number of hides ([2]; Dog Number 126): 1/2
- total number of alerts or interest / total number of hides ([2]; Dog Number 127): 0/2
- total number of alerts or interest / total number of hides ([2]; Dog Number 128): 0/1
- total number of alerts or interest / total number of hides ([2]; Dog Number 129): 1/1
- total number of alerts or interest / total number of hides ([2]; Dog Number 130): 0/1
- total number of alerts or interest / total number of hides ([2]; Dog Number 131): 0/1
- total number of alerts or interest / total number of hides ([2]; Dog Number 132): 0/1
- overall canine population response to odor chemical (alert/interest) [2]: 27.5%
- Total, alerts or interest / hides [2]: 12/41
- Total, alerts or interest as percent of hides [2]: 29.3%
- Adjusted Total, alerts or interest / hides [2]: 11/40
- Adjusted Total, alerts or interest as percent of hides [2]: 27.5%
